Source: patent US20070264674A1, “Cytochrome P450 Induction Assay” (priority 2004, published 2007)

Tested on: CAR or PXR
Assay: Fresh human hepatocytes transfected with clone 102-SEAP only
Type: cell-based
Conditions: 10 μM Rifampicin, 5 μM Clotrimazole, 10 μM TPP, 250 μM CITCO, 50 μM Artemisinin, about 48 h
Excerpt: In this example, clone 102-SEAP DNA was transfected into fresh human hepatocytes using the method of Example 6. […].

## CO[C@H]1/C=C/O[C@@]2(C)Oc3c(C)c(O)c4c(O)c(c(/C=N/N5CCN(C)CC5)c(O)c4c3C2=O)NC(=O)/C(C)=C\C=C\[C@H](C)[C@H](O)[C@@H](C)[C@@H](O)[C@@H](C)[C@H](OC(C)=O)[C@@H]1C [Rifampicin]
  induction of expression of the reporter gene (SEAP): inducers of expression of the reporter gene
